Test results published in US4863898A, “Amino acid chelated compositions for delivery to specific biological tissue sites” (priority 1986, dated 1989).

Tests used:
[1] = radioactive manganese in tissues after injection into the jugular vein (Example III); assay type: in vivo; settings: female rats; for radioactivity in Hypothalamus / radioactivity in Pituitary / radioactivity in Uterine tissue: 5.2 mcg manganese
Text: The manganese amino acid chelate was made utilizing a tripeptide of proline, histidine and glutamic acid as ligands and the mole ratio, of tripeptide ligand to manganese was 2:1. […] One hour after injection, three animals from each group were sacrificed. The remaining three from each group were sacrificed two hours after injection. The hypothalamus, pituitary and uterus of each animal was exposed and excised.

[2] = radioactive zinc in male sex tissues after intravenous dosage (Example II); settings: rats, intravenous 0.06 mg zinc, 24 hours post treatment, group average
Description: Three groups of rats, six in each group, weighing 250 gms±10 gms. were given an intravenous dosage, of 0.06 mg zinc containing 10 microcuries of radioactive zinc.
Each rat was sacrificed 24 hours post treatment and the testes, epididymis, and seminal visicle of each were exposed, excised and a determination was made of the amount of radioactive zinc in each.

[3] = female rats, after two hours
Description: Six female rats, weighing 250 gms.±10 gms., were divided into two groups. All rats were anethetized with 0.15 mls sodium phenobarbital USP. […] To the other three, the same amount of calcium was administered in the form a calcium chloride.
After two hours, all of he rats were sacrificed and the hypothalamus was removed and read for radioactivity.

[4] = stability constant of amino acid chelate; assay type: physicochemical
Text: The determination of stability constants of amino acid chelates is well documented in U.S. Pat. No. 4,167,564 and the means by which amino acid chelates may be formulated to provide optimal stability constants within the required ranges are disclosed in U.S. Pat. Nos. 4,176,564 and 4,172,072.

## manganese chloride [MgCl Salt]
[1]
  change (drop) in manganese concentration in hypothalamus from one hour to two hours: no noticable change
  change in manganese concentration in pituitary from one hour to two hours: no noticable change
[1]; 1 hr
  radioactivity in Hypothalamus: 25 cc/min/mg
  radioactivity in Pituitary: 100 cc/min/mg
  radioactivity in Uterine tissue: 50 cc/min/mg
[1]; 2 hr
  radioactivity in Hypothalamus: 25 cc/min/mg
  radioactivity in Pituitary: 100 cc/min/mg
  radioactivity in Uterine tissue: 50 cc/min/mg

## zinc-arginine chelate [GROUP I]
[2]
  radioactive zinc in Epididymis: 1.03 cc/min/mg
  radioactive zinc in Seminal Vesicle: 2.53 cc/min/mg
  radioactive zinc in Testes: 1.26 cc/min/mg

## calcium glycine amino acid chelate [chelated calcium]
[3]; intravenous 0.06 mg Ca
  radioactivity in hypothalamus, mean corrected counts per minute per milligram of tissue: 94.5±22.9 cc/min/mg
[3]; intravenous
  calcium uptake in pituitary vs calcium chloride group: showed an increase in calcium uptake
  calcium uptake in skeletal muscles vs calcium chloride group: showed an increase in calcium uptake
  calcium uptake in uterus vs calcium chloride group: showed an increase in calcium uptake
  increase in hypothalamus radioactive calcium, chelated vs inorganic calcium: 39.6%
[4]
  stability constant: 10^10
